miR-21 FLuc = miR-21 reporter, rising signal | HeLa miR-21 FLuc reporter, luciferase, 48 h | Potency, µM (top dose mostly 38.3 µM) | 340,000 tested, under 10 active | AID 2288; active = well fitted rising curve with a large enough effect; inconclusive = small, poorly fitted or top-dose-only effect; inactive = no such curve, though single readings can be large or run the other way;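 note: miR-21 action dims this reporter so a rising signal means less miR-21 action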
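HeLa miR-21-FLuc reporter line, endogenous miR-21; 2000 cells/well in DMEM/10% FBS; compound titration up to ~40uM final, 48 h, 37 degree Celsius; luciferase detection reagent, 15 min lysis, CCD luminescence.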
ClpP mod = qHTS Assay for Activators of ClpP; ATP-dependent Clp protease proteolytic subunit (Bacillus subtilis (strain 168)), P80244; purified B. subtilis ClpP, FRET peptide cleavage, 20 min; Potency, µM (doses to about 57.5 µM); 1.9% of 340,000 active; active = well fitted falling curve with a large enough effect; inconclusive = small, poorly fitted or top-dose-only effect; inactive = no such curve, though single readings can be large or run the other way; also: the source files actives as falling curves though it sought activators and does not explain the sign; nearly all actives have a fitted effect of over 65% in size
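Buffer: 100 mM Tris/HCl pH8, 100 mM KCl, 0.05% low protease BSA, 2.5% glycerol, 0.01% Tween-20. ClpP 10 microg/mL final; 20 min RT; delta FRET normalized to ADEP and DMSO controls.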
A549 viability = counter-screen for Nrf2 inhibitors: cytotoxicity in A549 cells | 0.16% of 390,000 active | A549 ARE-Fluc cells, CellTiter-Fluor viability, 18-24 h | AID 504648 | Potency, µM (titrated, usually from 46 µM), hits mostly inhibitors
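A549 ARE_Fluc cells in 5% FBS OPTI-MEM were exposed to compounds in concentration-response for 18-24 h at 37 deg C. Viability was read by CellTiter-Fluor fluorescence (Ex 405/Em 525) after 30 min, before the luciferase read.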
Nrf2 block = blocks Nrf2 signaling | A549 ARE-Fluc reporter, luciferase luminescence, 18-24 h | Potency, µM (highest dose often 46 µM), most hits filed as inhibitors | AID 504444 | 2.1% of 360,000 active; also: nearly all actives have a fitted effect of over 60% in size
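Nrf2 function is reported as luminescence of an ARE-controlled luciferase in A549 cells. Compounds were tested at several concentrations, and a CellTiter-Fluor read on the same wells flagged cytotoxicity.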
TCR act = activates T cell receptor signaling. 330,000 tested, under 10 active. primary human leukocytes, anti-CD3, IL-2 HTRF, 48 h. Potency, µM (series often up to 9.22 µM), most hits filed as activators. AID 504894
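HTRF read-out of IL-2 secretion: europium cryptate donor excited at 320nm, d2 acceptor emission at 665nm. Cells were primary human leukocytes incubated 48 hr with compounds and a-CD3 beads, supplying TCR signal only.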
Nrf2 ARE act = Nrf2 pathway activation; AREc32 ARE-luciferase reporter (MCF7-derived line), luminescence, 24 h; Potency, µM (titrated, usually from 46.1 µM), most hits filed as activators; 0.31% of 410,000 active; also: nearly all actives have a fitted effect of over 65% in size
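For detection, Steady-Glo was added and plates sat 30 min at RT; before that, AREc32_Fluc cells grown overnight in OPTI-MEM/5% FBS had been treated with 23 nL compound for 24 hr at 37 deg C.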
Each line names hits and unclear results; the compound was inactive in the other large screens. Only some compounds are listed: those with a hit (about 3.7% of all), similar ones and a draw of the others. Unless noted, calls follow the shape of the dose curve; as a rule, active = well fitted curve in the direction sought with a large enough effect; inconclusive = small, poorly fitted or top-dose-only effect, or another doubt; inactive = no such curve, though single readings can be large; an effect the other way counts as inactive or inconclusive.

NCCCCCc1nnc(SCc2ccccc2Cl)o1	A549 viability inconclusive, Nrf2 block 13µM
COc1ccc(-c2csc(NC(=O)c3ccccc3F)c2C(=O)O)cc1	Nrf2 block 13µM
COc1ccc2c(c1)-c1nc(NC(=O)c3cc(Cl)ccc3OC)sc1CC2	Nrf2 block inconclusive (no result: TCR act)
COc1ccc2c(c1)-c1nc(NC(=O)c3ccccc3F)sc1CC2	ClpP mod 35.5µM (no result: TCR act)
CC1(C)Oc2cc(N)c([N+](=O)[O-])cc2O1	ClpP mod 31.6µM
CCOC(=O)Nc1cc2c(C)cc(=O)oc2cc1C	ClpP mod 15.8µM
CN(C)c1ccc(NC(=O)COC(=O)c2cc(=O)c3ccccc3o2)cc1	none
CCOc1ccccc1NC(=O)c1cc(=O)c2ccccc2o1	none
COc1ccc(NC(=O)COC(=O)c2cc(=O)c3ccccc3o2)cc1OC	Nrf2 ARE act 12.6µM (no result: miR-21 FLuc)
CCOC(=O)Nc1cc(=O)c2ccccc2o1	ClpP mod 31.6µM (no result: Nrf2 block)
COc1ccc(NC(=O)C2Cc3c(-c4ccc(Cl)cc4)ccnc3O2)cc1OC (stereo unspecified)	none (no result: miR-21 FLuc, A549 viability, Nrf2 block, TCR act)
COc1ccc2c(CC(=O)NCCN3C(=O)S/C(=C\c4cccnc4)C3=O)coc2c1	ClpP mod 12.6µM (no result: TCR act)
CC(OC(=O)c1snc(C(=O)NC2CCCCC2)c1N)C(=O)NC(C)(C)C (stereo unspecified)	ClpP mod 28.2µM, Nrf2 block 11.2µM
O=C(COC(=O)c1nsc(Cl)c1Cl)NC1CCCCC1	none (no result: ClpP mod)
CC(C)(C)NC(=O)COC(=O)c1snc(C(=O)NC2CCCCC2)c1N	ClpP mod 28.2µM, Nrf2 block inconclusive
CC(OC(=O)c1nsc(Cl)c1Cl)C(=O)NC1CCCCC1 (stereo unspecified)	none (no result: ClpP mod)
COC(=O)c1ccc(NC(=O)CSc2nc3cc4ccccc4cc3[nH]2)cc1	none (no result: TCR act)
COc1ccccc1CNS(=O)(=O)c1ccc2c(c1)CC(C)N2C(=O)C1CCC1 (stereo unspecified)	Nrf2 block 18.4µM
Cc1cccc(NS(=O)(=O)c2ccc3c(c2)CC(C)N3C(=O)C2CCC2)c1C (stereo unspecified)	Nrf2 block inconclusive (no result: TCR act)
Cc1cc(C)c(NS(=O)(=O)c2ccc3c(c2)CC(C)N3C(=O)C2CCC2)c(C)c1 (stereo unspecified)	Nrf2 block 20.6µM (no result: TCR act)
CCCN(c1ccccc1CC)S(=O)(=O)c1ccc2c(c1)CC(C)N2C(=O)C1CC1 (stereo unspecified)	miR-21 FLuc inconclusive, Nrf2 block 20.6µM (no result: TCR act)
CCCCN(c1ccccc1)S(=O)(=O)c1ccc2c(c1)CC(C)N2C(=O)C1CC1 (stereo unspecified)	miR-21 FLuc inconclusive, Nrf2 block inconclusive (no result: TCR act)
CC1Cc2cc(S(=O)(=O)CCC(=O)Nc3ccc(OC(F)(F)F)cc3)ccc2N1C(=O)C1CC1 (stereo unspecified)	Nrf2 block 23.1µM (no result: TCR act)
COc1ccc(C(=O)NCC(c2ccco2)N2CCc3ccccc32)c(OC)c1 (stereo unspecified)	none (no result: miR-21 FLuc)
COc1ccccc1NC(C)C(=O)c1c[nH]c2ccccc12 (stereo unspecified)	none (no result: miR-21 FLuc, A549 viability, Nrf2 block, TCR act, Nrf2 ARE act)
S=C(NCc1ccccn1)NN=Cc1ccccn1	A549 viability inconclusive, Nrf2 block 14.6µM (no result: miR-21 FLuc)
COc1ccccc1/C=C/C(=O)OCCN1CCOCC1	ClpP mod 25.1µM
COc1ccccc1/C=C1\SC(=S)N(CCC(=O)NCCCN2CCOCC2)C1=O	A549 viability 23.1µM, Nrf2 block inconclusive (no result: ClpP mod)
O=C(CCCN1C(=O)/C(=C/c2ccccc2Cl)SC1=S)NCCCN1CCOCC1	miR-21 FLuc inconclusive, A549 viability inconclusive, Nrf2 block 14.6µM
COc1ccccc1/C=C/C(=O)N1CCOCC1	none
CCc1ccc(Oc2c(C(F)(F)F)oc3c(CN4CCCC(C)C4)c(O)ccc3c2=O)cc1 (stereo unspecified)	none (no result: TCR act)
COc1ccc(-n2c(SCC(=O)NCc3ccc(Cl)cc3)nc3ccsc3c2=O)cc1	none (no result: TCR act)
CCCc1cc(F)c(S(=O)(=O)N2CCN(S(=O)(=O)c3ccc4c(c3)OCCO4)CC2)cc1F	none (no result: miR-21 FLuc, ClpP mod, TCR act, Nrf2 ARE act)
CC(=O)Oc1ccc(-c2nc(-c3ccccc3)no2)cc1	none (no result: miR-21 FLuc, A549 viability, Nrf2 block, TCR act, Nrf2 ARE act)
CCC1OC(C(C)C)Cc2[nH][nH]c(=O)c21 (stereo unspecified)	none (no result: miR-21 FLuc, A549 viability, Nrf2 block, TCR act)
COc1cccc(N2CCN(C3CC(=O)N(c4ccc(F)c(Cl)c4)C3=O)CC2)c1 (stereo unspecified)	Nrf2 block inconclusive
COc1ccc(NC2CCN(C3CC(=O)N(c4ccc(F)c(Cl)c4)C3=O)CC2)cc1 (stereo unspecified)	ClpP mod 2.82µM (no result: Nrf2 block)
O=C(NC1CCCCCC1)c1nc2ncccn2n1	ClpP mod 28.2µM
Cc1cc(C)c2c(c1)/C(=N/Nc1ccc(S(N)(=O)=O)cc1[N+](=O)[O-])CCC2	none
NS(=O)(=O)c1ccc(N/N=C2/CCCCC2C2CCCCC2)c([N+](=O)[O-])c1 (stereo unspecified)	A549 viability inconclusive, Nrf2 block 20.6µM
COc1cccc(S(=O)(=O)N2C[C@H](O)COC[C@H]3O[C@@H](CC(=O)N4CCN(C)CC4)CC[C@@H]32)c1	none (no result: miR-21 FLuc, A549 viability, Nrf2 block, TCR act, Nrf2 ARE act)
CC(C)c1ccc(C2NC(=O)NC3=C2CCc2ccccc23)cc1 (stereo unspecified)	ClpP mod 28.2µM, Nrf2 block inconclusive
COc1ccc(C2NC(=O)NC3=C2CCc2ccccc23)cc1 (stereo unspecified)	ClpP mod 15.8µM (no result: Nrf2 block)
Cc1ccc(C2NC(=O)NC3=C2CCc2ccccc23)cc1 (stereo unspecified)	ClpP mod inconclusive
COc1cc(F)cc(F)c1[S+](=O)([O-])N1CCN([S+](=O)([O-])c2ccc3c(c2)OCCO3)CC1	none (no result: miR-21 FLuc, ClpP mod, TCR act, Nrf2 ARE act)
O=C(Nc1ccc(Oc2ccccc2)nc1)C1CCN(Cc2ccco2)CC1	none (no result: ClpP mod)
O=C(Nc1ccc(Oc2ccccc2)nc1)C1CCN(Cc2cccc(F)c2)CC1	A549 viability inconclusive, Nrf2 block 18.4µM
C#Cc1ccc(CN2CCC(C(=O)Nc3ccc(Oc4ccccc4)nc3)CC2)cc1	A549 viability inconclusive, Nrf2 block 18.4µM
NCCCCCC(=O)N/N=C/c1coc2ccccc2c1=O	ClpP mod 17.8µM
N#CCC(=O)N/N=C/c1coc2ccccc2c1=O	none
COc1ccc(Br)cc1/C(C)=N/NC1=NCCN1	Nrf2 block 11.6µM
CCCCCOc1ccc(Br)cc1/C(C)=N/NC1=NCCN1	miR-21 FLuc inconclusive, A549 viability inconclusive
CCOC(=O)c1ccc(NC(=O)CSc2nccn2Cc2ccc(OC)cc2)cc1	none (no result: Nrf2 block, TCR act)
CC(=O)N1CCN(C(c2ccccc2)c2ccccc2)CC1	none (no result: miR-21 FLuc, A549 viability, Nrf2 block, TCR act)
